Experimental data from BindingDB's records for doi:10.1007/pl00005133 (Eli Lilly, 1998).

By UniProt entry, the sequences of proteins in these tests, tags left out.
UniProt P41595, whole entry: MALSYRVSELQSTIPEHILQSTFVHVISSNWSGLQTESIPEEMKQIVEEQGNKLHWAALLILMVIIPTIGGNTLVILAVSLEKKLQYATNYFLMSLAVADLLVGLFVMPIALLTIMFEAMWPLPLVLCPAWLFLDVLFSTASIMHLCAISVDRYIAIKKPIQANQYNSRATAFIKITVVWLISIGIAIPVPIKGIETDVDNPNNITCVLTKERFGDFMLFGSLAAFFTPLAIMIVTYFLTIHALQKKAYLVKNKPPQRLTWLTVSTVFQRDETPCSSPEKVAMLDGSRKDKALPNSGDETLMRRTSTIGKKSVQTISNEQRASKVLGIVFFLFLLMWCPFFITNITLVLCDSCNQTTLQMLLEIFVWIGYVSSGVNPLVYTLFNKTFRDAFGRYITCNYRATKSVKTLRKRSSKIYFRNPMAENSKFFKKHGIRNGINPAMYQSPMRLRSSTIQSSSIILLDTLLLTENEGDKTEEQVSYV

Target: 5-hydroxytryptamine receptor 2B (Homo sapiens, UniProt P41595)

Row | SMILES | Ki [nM]
1 | Clc1cccc(N2CCNCC2)c1 [mCPP] | 10.5
2 | CSc1ccc2c(c1)C(N1CCN(C)CC1)Cc1ccccc1S2 (configuration not stated) [methanesulfonic acid;1-methyl-4-(3-methylsulfanyl-5,6-dihydrobenzo[b][1]benzothiepin-5-yl)piperazine] | 0.58
